Measurements taken from patent publication US20110046385A1, “Polymorphs Of Prostaglandin Agonists And Methods For Making The Same” (priority 2007, published 2011).

Chains of the proteins cited; added tags and fusions are not shown. Lines headed by an entry give the natural chain unless they say otherwise; changes in a name come on top.
UniProt P43116: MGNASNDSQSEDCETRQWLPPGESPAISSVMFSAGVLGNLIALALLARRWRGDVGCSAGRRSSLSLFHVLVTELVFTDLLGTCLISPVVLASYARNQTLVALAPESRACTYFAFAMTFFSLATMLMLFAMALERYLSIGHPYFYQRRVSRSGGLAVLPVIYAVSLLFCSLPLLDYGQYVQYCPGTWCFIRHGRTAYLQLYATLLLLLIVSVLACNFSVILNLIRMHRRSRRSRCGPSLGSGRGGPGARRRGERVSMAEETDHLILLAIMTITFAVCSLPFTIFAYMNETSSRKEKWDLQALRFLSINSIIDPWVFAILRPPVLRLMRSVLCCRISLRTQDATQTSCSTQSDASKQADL

Target: T1, recombinant human EP2 receptor (Homo sapiens, UniProt P43116)
T1 construct: cDNAs representing the complete open reading frames of the human EP2 and EP4 receptors; expressed in transfected cells
Test: Scatchard analysis of specific [3H]PGE2 binding in 293-S line overexpressing EP2
Details: read-out: Kd for PGE2 (EP2); 293-S/EP2 line, approximately 338,400 receptors per cell

Question: For `CCCCC[C@H](O)/C=C/[C@H]1[C@H](O)CC(=O)[C@@H]1C/C=C\CCCC(=O)O` [PGE2, prostaglandin E2], which Kd is on record?
Answer: The Kd was 12 nM.
